The structures appear in SMILES notation. This is a selection; strong and weak results do not stand in their true shares. Some tests of the compounds listed are not included; inactive here does not mean inactive elsewhere. Activity calls are given as the source filed them.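 Rule for the calls: active = more than half of replicate wells show activity change below -50%, luminescence cut by over half; inconclusive = some wells, but at most half, below -50%; inactive = no replicate well below -50%.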

The nature of the assay: blocking HSF1-driven luciferase expression – cell-based, NIH3T3, luminescence, primary screen (AID 2098).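 Note: luciferase reports HSF-1 transcriptional activity via heat shock element; 0% = median of DMSO wells and -100% = zero luminescence signal.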 As to conditions: NIH3T3-HGL HSE-luciferase, MG132-induced, luminescence 8 h; active compounds read low; screened at 7.5 µM (by protocol).
For `COc1cc(SC)ccc1C(=O)NCC1(N(C)C)CCCCC1`, the activity change, negative = inhibition was inactive: -4.37%.

As to `CCN(CC)CC(C)C(C)OC(=O)C(O)(c1ccccc1)c1ccccc1` (centres undefined), the activity change, negative = inhibition was inactive: 5.15%.

As to `CC(C)N1C(=O)CC2(CCN(CCOC(=O)C(O)(c3ccccc3)c3ccccc3)CC2)C1=O`, the activity change, negative = inhibition was inactive: 5.43%. Consider `Cc1ccc(C(=O)NCC2(N3CCCCC3)CCCCC2)cc1`, for which the activity change, negative = inhibition was inactive: 0.731%. As to `O=C(NCC1(N2CCCCC2)CCCCC1)c1cc([N+](=O)[O-])ccc1Cl`, the activity change, negative = inhibition was inactive: 1.59%. The result for `CN1[C@@H]2CC[C@H]1CC(OC(=O)C(O)(c1ccccc1)c1ccccc1)C2` (some centres undefined) reads inactive: -16.9%; that for `O=C(NCC1(N2CCCCC2)CCCCC1)c1cc(F)c(F)cc1Cl`, inactive: 4.59%; that for `C=CCN1CCN(CCOC(=O)C(O)(c2ccccc2)c2ccccc2)CC1`, inactive: -6.89%. `COc1ccc(C(=O)NCC2(N(C)C)CCCCC2)cc1`: the activity change, negative = inhibition was inactive: -2.72%. Next, `O=C(NCC1(N2CCCCC2)CCCCC1)c1cccc(Br)c1`: inactive: -3.9%; `CCN1CCCC(OC(=O)C2(O)c3ccccc3C=Cc3ccccc32)C1` (centres undefined): inactive: -24.7%; `Cc1cc(C(=O)NCC2(N3CCCCC3)CCCCC2)ccc1[N+](=O)[O-]`: inactive: -8.77%. The result for `CN(C)c1ccc(C(=O)NCC2(N(C)C)CCCCC2)cc1` reads inactive: -1.74%; that for `CN(C)C1CCCC1OC(=O)C(O)(c1ccccc1)c1ccccc1` (centres undefined), inactive: 5.12%. The result for `Cc1ccccc1C(=O)NCC1(N2CCCCC2)CCCCC1` reads inactive: 5.01%; that for `COc1ccc(Cl)cc1C(=O)NCC1(N(C)C)CCCCC1`, inactive: -10.6%; that for `COc1cccc(C(=O)NCC2(N3CCCCC3)CCCCC2)c1`, inactive: -8.16%. With `O=C(NCC1(N2CCCCC2)CCCCC1)c1cccc(Cl)c1`, the activity change, negative = inhibition was inactive: -6.95%. The result for `CN(C)C1(CNC(=O)c2ccc(Br)cc2)CCCCC1` reads inactive: -0.567%; that for `COc1cc(C(=O)NCC2(N(C)C)CCCCC2)c([N+](=O)[O-])cc1OC`, inactive: 38.5%; that for `COc1ccc(Br)c(C(=O)NCC2(N3CCCCC3)CCCCC2)c1`, inactive: -5.99%. Next, `CC(C)Oc1ccc(C(=O)NCC2(N(C)C)CCCCC2)cc1`: inactive: -1.84%; `CN(C)c1cccc(C(=O)NCC2(N(C)C)CCCCC2)c1`: inactive: -8.34%; `O=C(OC1CN2CCC1CC2)C(CO)(c1ccccc1)c1ccccc1` (centres undefined): inactive: -7.97%.

The values are drawn from PubChem BioAssay AID2098 (Broad Institute, 2009).
